## Measured affinities in a library of Ab-91 heavy chain variants

The measurements come from Engelhart et al. 2022 (doi:10.1038/s41597-022-01779-4) through the FLAb antibody collection.

All variants were tested on one target, the spike HR2 peptide PDVDLGDISGINAS (SARS-CoV-2).

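Library AAYL51 holds single substitutions and randomly drawn double and triple substitutions in the CDRs. In AlphaSeq, yeast of one mating type display the scFv and yeast of the other type display the target. After mating in shaken culture at 30 °C for 16 h, diploids were selected and their barcode pairs sequenced. Scores were corrected for input abundance and mapped to Kd with protein pairs of known affinity run in the same pool. The assay was run in three technical replicates.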

The variants keep the light chain, the linker and the frameworks of Ab-91 (scFv order VL, three GGGGS repeats, VH).
VL: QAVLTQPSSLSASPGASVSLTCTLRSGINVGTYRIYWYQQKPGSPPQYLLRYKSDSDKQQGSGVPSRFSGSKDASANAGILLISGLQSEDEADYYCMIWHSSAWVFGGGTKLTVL
VH: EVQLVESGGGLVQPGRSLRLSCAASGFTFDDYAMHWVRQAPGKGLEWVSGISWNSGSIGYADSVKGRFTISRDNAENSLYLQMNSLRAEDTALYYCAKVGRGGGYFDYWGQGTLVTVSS

The parent's heavy chain CDRs are GFTFDDYAMH, GISWNSGSIGYADSVK, VGRGGGYFDY; each variant's own CDRs replace them letter for letter. Every variant below is changed at A61 of the VH (sequential numbering). Kd is apparent (estimated from mating counts) and averaged on the log scale over replicates with a signal. Smaller is tighter. "no signal" means that the variant was in the library but no mating with the target was seen in any replicate; the authors take this as a sign of poor binding, and no number exists. Background: pairings of library AAYL51 with three empty control strains gave a value in 21% of cases (median 34 µM, 5th percentile 1.8 µM). Values in that range, when seen in few replicates, are hard to tell from nonspecific mating. The control count says in how many pairings with the empty strains this scFv gave a signal.

Variant GFTFDDYAMH / GISWNSGSIGYPDSVK / YGRGGGHFDY showed no signal (0 of 3 replicates; controls 0 of 9). For GFTFDDYAMH / GISWVSGSIGYNDSVK / VGRPGGYFDY, the assay gave 210 µM (2 of 3 replicates; controls 9 of 9). Variant GQTFDDYAMH / GISWNSGSIGYLDSVK / VGRGGNYFDY showed no signal (0 of 3 replicates; controls 0 of 9). With GFTFDDYAMH / GIDWNSGSIGYGDSVK / VGRGGGYFDY the result was no signal (0 of 3 replicates; controls 1 of 9). With GFTFDMYAMH / GISWNSGSIGYKDSVK / VGRGGGYMDY the result was 14 nM (3 of 3 replicates; controls 0 of 9). With GFCFDDYAMH / GISWNSGSISYTDSVK / VGRGGGYFDY the result was 73 µM (3 of 3 replicates; controls 5 of 9). Variant GFTFDDYAMH / GISWTSGSIGLSDSVK / VGRGGGYFDY showed no signal (0 of 3 replicates; controls 1 of 9). For GFTFDDYASH / GISWNSGSIGYKDSVK / VGRGGGYFDY, the assay gave no signal (0 of 3 replicates; controls 5 of 9). With GFTFDDYMIH / GISWNSGSIGYLDSVK / VGRGGGYFDY the result was 62 µM (1 of 3 replicates; controls 0 of 9).

With GFTFDDYAMH / GISWTSGSIGYYYSVK / VGRGGGYFDY the result was 19 µM (1 of 3 replicates; controls 0 of 9). Variant GFTFDDIAMH / GISWNSGSIGYVDSVK / VGRSGGYFDY gave 120 µM (1 of 3 replicates; controls 3 of 9). Variant GFLFDDYAMH / GISWNSGSIGYDDSVK / VGRGGGYFWY showed 1.2 µM (3 of 3 replicates; controls 2 of 9). Variant GFTFDDYAMH / GISSNSGSIGYSDSVK / VGRGGGYFRY gave no signal (0 of 3 replicates; controls 2 of 9). Variant GFAFDDYAMH / GISWNSGSIGYCDSVK / VQRGGGYFDY showed no signal (0 of 3 replicates; controls 1 of 9). For GFTFDDYAMH / GISWNSGSIGKDDSVK / VGRGGGYFDY, the assay gave no signal (0 of 3 replicates; controls 0 of 9). With GFTFDDYAMH / GHSWNSGSIGYRDSVK / VRRGGGYFDY the result was 14 µM (2 of 3 replicates; controls 6 of 9). With GFTFDDYAMH / GFSWNSGSIGYYDSVK / VGRGGGIFDY the result was no signal (0 of 3 replicates; controls 0 of 9). For GFTFDDYAMH / GISWNVGSTGYEDSVK / VGRGGGYFDY, the assay gave 17 µM (1 of 3 replicates; controls 2 of 9).

For GFTFDDYAMH / GISWNSGSIGYWDSVK / VGRLGGYFDY, the assay gave no signal (0 of 3 replicates; controls 1 of 9). With GFTFFDYAMH / GISGNSGSIGYGDSVK / VGRGGGYFDY the result was no signal (0 of 3 replicates; controls 1 of 9). Variant GFTFDDYAMH / GISWNSGSIGYQDSVK / MGRGGGRFDY gave no signal (0 of 3 replicates; controls 0 of 9). Variant GFTFDDYAMH / GISWNSGSIGYLDSVK / VGRGGTYFDF showed 7.5 µM (3 of 3 replicates; controls 7 of 9). With GFTFDDYAMH / GISWNSKSIGYTDSVK / VGRGAGYFDY the result was 6.7 µM (1 of 3 replicates; controls 0 of 9). Variant GFTFDDYAMH / GISWNSGSIGYVDSVK / EGRGGGYFDY showed no signal (0 of 3 replicates; controls 1 of 9). With GFAFDDYAMH / GISWNSGSIQYYDSVK / VGRGGGYFDY the result was no signal (0 of 3 replicates; controls 0 of 9). Variant GFTFDPYAMH / GISWNSGSIGYMDSVK / VGRSGGYFDY gave no signal (0 of 3 replicates; controls 1 of 9). Variant GFTFDDYAMH / GISWNSGSIGYHDSVK / VGRGTGYFDY gave 120 nM (3 of 3 replicates; controls 1 of 9).

Variant GFTFDDYAMH / GISWFSGSIGYHDSVK / VGRGGGNFDY showed 1.8 µM (1 of 3 replicates; controls 0 of 9). Variant GFTFDDYAMH / GISWNSGSIRYDDSVE / VGRGGGYFDY gave 430 µM (3 of 3 replicates; controls 6 of 9). Variant GFTFDKYAMH / GISWNSGSIGYDDSVK / VGRGPGYFDY gave 51 µM (3 of 3 replicates; controls 3 of 9). For GFTFDDYAMH / GIYWNSGSIGSCDSVK / VGRGGGYFDY, the assay gave no signal (0 of 3 replicates; controls 0 of 9). Variant GFTFDDYAAH / GISWNSGSIGYEDSVK / VGYGGGYFDY showed no signal (0 of 3 replicates; controls 0 of 9). Variant GFTFDDYAMH / GISWNSGSIGYCDNVK / SGRGGGYFDY showed 1.9 µM (1 of 3 replicates; controls 0 of 9). With GHTFDDIAMH / GISWNSGSIGYIDSVK / VGRGGGYFDY the result was 2.5 µM (1 of 3 replicates; controls 2 of 9). With VFTMDDYAMH / GISWNSGSIGYWDSVK / VGRGGGYFDY the result was no signal (0 of 3 replicates; controls 1 of 9). For GFTFDDYAMH / GISWNSGSIGYMDSVK / VGRHGGYRDY, the assay gave 290 µM (2 of 3 replicates; controls 2 of 9).

For GFTFDDYAMH / GISWNSGSIGYWDKVK / VGRGGGLFDY, the assay gave no signal (0 of 3 replicates; controls 3 of 9). With GFDFDDYAMH / GISWNSGSIGYPGSVK / VGRGGGYFDY the result was 110 µM (1 of 3 replicates; controls 3 of 9). Variant GFTFDDYAMH / GISWNSNSIGYLDSVY / VGRGGGYFDY showed 800 nM (2 of 3 replicates; controls 3 of 9). Variant GFTFDDYAMH / GISWNSGSIGYYDSVG / VGRGRGYFDY gave no signal (0 of 3 replicates; controls 2 of 9). Variant GFTFDDYAMH / GISWNSGSIGYMDSVK / VGRGEGYFNY gave no signal (0 of 3 replicates; controls 0 of 9). Variant GFTFDDYAMH / GISWNSQSIGYHDSVK / VGRGGGYGDY showed no signal (0 of 3 replicates; controls 1 of 9). Variant GFYFDDYAMH / GISWFSGSIGYFDSVK / VGRGGGYFDY showed no signal (0 of 3 replicates; controls 1 of 9). Variant KFTFDDYAMH / GISWNSGSIGYDDSVK / VGRGGGYFDY gave 220 µM (1 of 3 replicates; controls 1 of 9). Variant GFYFDDYAMH / GISWNSGSIGYWDSVK / VGRGGGYFDY gave 1.7 µM (1 of 3 replicates; controls 2 of 9).

Excerpt, the first 6 entries:

{"CDR-H1": "GFTFDDYAMH", "CDR-H2": "GISWNSGSIGYPDSVK", "CDR-H3": "YGRGGGHFDY", "Kd": "no signal", "replicates with signal": "0 of 3", "control signals": "0 of 9"}
{"CDR-H1": "GFTFDDYAMH", "CDR-H2": "GISWVSGSIGYNDSVK", "CDR-H3": "VGRPGGYFDY", "Kd": "210 µM", "replicates with signal": "2 of 3", "control signals": "9 of 9"}
{"CDR-H1": "GQTFDDYAMH", "CDR-H2": "GISWNSGSIGYLDSVK", "CDR-H3": "VGRGGNYFDY", "Kd": "no signal", "replicates with signal": "0 of 3", "control signals": "0 of 9"}
{"CDR-H1": "GFTFDDYAMH", "CDR-H2": "GIDWNSGSIGYGDSVK", "CDR-H3": "VGRGGGYFDY", "Kd": "no signal", "replicates with signal": "0 of 3", "control signals": "1 of 9"}
{"CDR-H1": "GFTFDMYAMH", "CDR-H2": "GISWNSGSIGYKDSVK", "CDR-H3": "VGRGGGYMDY", "Kd": "14 nM", "replicates with signal": "3 of 3", "control signals": "0 of 9"}
{"CDR-H1": "GFCFDDYAMH", "CDR-H2": "GISWNSGSISYTDSVK", "CDR-H3": "VGRGGGYFDY", "Kd": "73 µM", "replicates with signal": "3 of 3", "control signals": "5 of 9"}

For reference, the parent read 72 nM as the reference entry and 7.5 nM as a member of this library.